System: Kunming mice
Settings: administering dosage 16678, intravenous, 10 mice
Description: The mice were provided by Medical school of Tongji University and with a batch No. 19-052.
Commonly, the lethality of the mice was regarded as positive index. After the death mice of each group were recorded and calculated and a LD50 value was calculated according to the Bliss statistical method.

## C[C@H]1[C@H](C)CC[C@]2(C(=O)O)CC[C@]3(C)C(=CC[C@@H]4[C@@]5(C)CC[C@H](O)C(C)(C)[C@@H]5CC[C@]43C)[C@H]12 [Ursolic Acid for Injection, ursolic acid]
  Probability unit (y): 8.09

Reference: patent US8287889B2 (Wuhan Liyuanheng Pharmaceutical Technology Ltd., priority 2002, dated 2012)
